Paper PMC2442905 (2008)

Sequences of proteins named here, by UniProt entry; tags and fusion partners are left off. A change or cut given only in a name is not applied to a line headed by its entry.
UniProt Q12809: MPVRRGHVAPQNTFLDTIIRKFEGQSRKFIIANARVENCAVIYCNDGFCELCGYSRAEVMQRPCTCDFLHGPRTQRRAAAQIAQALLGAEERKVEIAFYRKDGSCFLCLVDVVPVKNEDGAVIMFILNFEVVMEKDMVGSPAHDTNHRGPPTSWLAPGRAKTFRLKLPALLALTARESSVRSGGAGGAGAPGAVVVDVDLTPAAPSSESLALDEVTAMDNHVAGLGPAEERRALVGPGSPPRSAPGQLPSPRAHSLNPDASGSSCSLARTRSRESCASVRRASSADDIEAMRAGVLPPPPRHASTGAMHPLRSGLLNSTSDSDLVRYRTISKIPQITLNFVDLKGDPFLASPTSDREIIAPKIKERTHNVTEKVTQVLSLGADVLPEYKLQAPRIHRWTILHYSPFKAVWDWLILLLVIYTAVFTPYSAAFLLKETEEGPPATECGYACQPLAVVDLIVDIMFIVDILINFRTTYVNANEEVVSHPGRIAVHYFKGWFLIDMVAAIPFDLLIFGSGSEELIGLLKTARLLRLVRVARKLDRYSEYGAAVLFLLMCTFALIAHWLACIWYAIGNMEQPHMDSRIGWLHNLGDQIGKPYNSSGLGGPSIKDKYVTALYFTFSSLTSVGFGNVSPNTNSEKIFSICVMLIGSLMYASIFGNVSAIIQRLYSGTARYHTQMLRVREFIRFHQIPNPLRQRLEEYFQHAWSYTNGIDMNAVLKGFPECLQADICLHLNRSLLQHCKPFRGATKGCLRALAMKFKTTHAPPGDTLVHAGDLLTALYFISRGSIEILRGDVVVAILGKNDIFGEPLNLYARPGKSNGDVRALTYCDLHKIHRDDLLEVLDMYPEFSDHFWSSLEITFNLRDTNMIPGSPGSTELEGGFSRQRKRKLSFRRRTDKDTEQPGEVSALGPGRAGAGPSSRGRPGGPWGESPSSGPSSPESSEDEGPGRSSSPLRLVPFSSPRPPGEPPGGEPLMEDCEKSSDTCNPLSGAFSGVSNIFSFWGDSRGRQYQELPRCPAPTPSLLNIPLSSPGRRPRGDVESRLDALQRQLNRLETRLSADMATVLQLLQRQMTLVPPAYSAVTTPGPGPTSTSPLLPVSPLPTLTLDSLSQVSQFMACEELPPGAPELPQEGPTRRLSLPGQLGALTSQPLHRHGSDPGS

Molecular target: hERG potassium channels stably expressed in CHO-K1 cells (Homo sapiens, UniProt Q12809)
Assay: cell-based

SMILES: O=C1Cc2cc(CCN3CCN(c4nsc5ccccc45)CC3)c(Cl)cc2N1 [Ziprasidone]
- IC50: 165 nM
